Ab-91 heavy chain CDR variants: yeast mating affinities

Target peptide (SARS-CoV-2 spike, HR2 region): PDVDLGDISGINAS

Ab-91 is the parent antibody, in scFv form: VL, then the linker GGGGSGGGGSGGGGS, then VH. The light chain is unchanged in all variants.
VL: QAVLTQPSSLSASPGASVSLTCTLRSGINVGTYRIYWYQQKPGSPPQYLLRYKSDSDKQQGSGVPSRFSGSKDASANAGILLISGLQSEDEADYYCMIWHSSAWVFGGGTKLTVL
VH: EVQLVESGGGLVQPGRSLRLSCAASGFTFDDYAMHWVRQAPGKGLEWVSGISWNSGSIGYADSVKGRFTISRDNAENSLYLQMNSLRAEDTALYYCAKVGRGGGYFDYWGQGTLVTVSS

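The starting antibody came from a phage panning campaign against this peptide. AAYL51 was designed without a model: most single CDR substitutions and a random sample of double and triple ones. In AlphaSeq, yeast of one mating type display the scFv and yeast of the other type display the target. Mating (16 h, 30 °C) was followed by selection of diploids and sequencing of their barcodes. The ratio of observed to expected reads was calibrated, replicate by replicate, on BCL2-family standards whose Kd was known from biolayer interferometry. Each pool was mated in three replicate cultures.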

Positions count from residue 1 of the parent VH; G50E puts E in place of G. Values are log10 of the apparent Kd in nM; lower means stronger binding. "ND" means that the variant was in the library but no mating with the target was seen in that replicate; the authors take this as a sign of poor binding, and no number exists.

| changes | replicates, log10 nM | signal with controls |
|---|---|---|
| G50E D107N | ND ND ND | 2/9 (4.35) |
| F29T I58W V64W | ND ND ND | 0/9 |
| A33D K65A G104H | 4.07 ND ND | 0/9 |
| W53L V99G R101I | 1.45 1.39 0.91 | 2/9 (5.06) |
| D31S S52W S63N | ND ND ND | 0/9 |
| K65D Y105D | 5.10 ND ND | 3/9 (4.13) |
| I51Y Y108H | ND ND 3.76 | 3/9 (4.37) |
| S55V G104T F106Q | ND ND ND | 0/9 |
| S52R S63T | 3.42 ND ND | 3/9 (4.67) |
| A33P S57Q | ND ND ND | 2/9 (3.56) |
| S52F V99G R101H | 5.30 ND ND | 1/9 (4.80) |
| A33G A61K S63R | ND ND ND | 3/9 (4.85) |
| D31P G59D F106N | 4.54 5.41 5.26 | 5/9 (4.81) |
| F29K R101H G103M | 3.76 ND ND | 0/9 |
| K65W Y105I | 4.64 2.94 ND | 0/9 |
| H35E A61V V99N | 2.74 ND ND | 0/9 |
| F27Y S57Y | 2.37 2.55 1.87 | 0/9 |
| S52V S63M V99Q | 4.17 5.05 ND | 3/9 (4.04) |
| S52W G103E D107W | 4.82 ND ND | 2/9 (5.12) |
| H35Q S57G F106Y | ND ND ND | 0/9 |
| K65G F106T Y108V | 1.07 1.09 0.67 | 6/9 (4.98) |
| F27Q Y32T S57G | 4.65 ND ND | 3/9 (4.52) |
| T28P S55Q G59N | 5.34 4.43 ND | 1/9 (3.93) |
| S57H S63K G100Y | 5.13 3.48 3.81 | 0/9 |
| G50W G103P D107Q | 4.38 4.82 5.61 | 6/9 (5.30) |
| V64C Y105N Y108F | 4.38 4.98 ND | 8/9 (4.24) |
| I51N W53G F106Q | ND ND ND | 0/9 |
| M34K S52Y V99S | ND ND ND | 0/9 |
| D30V D62H F106T | 3.29 3.14 3.36 | 0/9 |
| F27M V99D R101L | 4.04 ND 3.48 | 2/9 (4.03) |
| S52H G59V F106G | 4.53 5.37 ND | 4/9 (4.67) |
| N54L S63Q | 5.35 4.34 4.95 | 2/9 (4.80) |

From the list, the first 5 with no signal in any replicate:

| changes | replicates, log10 nM | signal with controls |
|---|---|---|
| G50E D107N | ND ND ND | 2/9 (4.35) |
| F29T I58W V64W | ND ND ND | 0/9 |
| D31S S52W S63N | ND ND ND | 0/9 |
| S55V G104T F106Q | ND ND ND | 0/9 |
| A33P S57Q | ND ND ND | 2/9 (3.56) |

Background: pairings of library AAYL51 with three empty control strains gave a value in 21% of cases (median 4.54, 5th percentile 3.26). Values in that range, when seen in few replicates, are hard to tell from nonspecific mating. The control count says in how many pairings with the empty strains this scFv gave a signal, with their mean in brackets. In this assay the parent's reference entry averaged 1.86; its copy inside this library read 0.88.

Source: Engelhart et al. 2022 (doi:10.1038/s41597-022-01779-4), MIT Lincoln Laboratory and A-Alpha Bio; data file from the FLAb repository.